Experimental data as given in ChEMBL document CHEMBL1130526, “Amide surrogates of matrix metalloproteinase inhibitors: Urea and sulfonamide mimics” (Bioorg Med Chem Lett, 1997).

Target: T1, Interstitial collagenase (Homo sapiens, UniProt P03956)
T1 sequence (P03956 whole entry): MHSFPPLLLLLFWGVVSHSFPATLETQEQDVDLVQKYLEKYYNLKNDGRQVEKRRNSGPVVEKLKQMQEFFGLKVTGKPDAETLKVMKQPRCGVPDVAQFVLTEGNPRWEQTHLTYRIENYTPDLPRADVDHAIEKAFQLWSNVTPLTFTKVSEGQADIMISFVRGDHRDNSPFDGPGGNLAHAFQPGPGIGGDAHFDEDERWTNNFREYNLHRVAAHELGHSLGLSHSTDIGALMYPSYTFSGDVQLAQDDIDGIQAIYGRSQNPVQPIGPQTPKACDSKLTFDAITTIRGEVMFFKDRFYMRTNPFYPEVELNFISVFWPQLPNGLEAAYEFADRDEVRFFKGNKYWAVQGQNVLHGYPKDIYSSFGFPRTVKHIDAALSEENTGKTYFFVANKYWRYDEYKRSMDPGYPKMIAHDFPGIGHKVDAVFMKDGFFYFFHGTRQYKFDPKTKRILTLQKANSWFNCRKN
Experiment: Inhibition of Matrix metalloprotease-1 (MMP-1)

For `CNC(=O)[C@H](Cc1ccc(OC)cc1)NC(=O)[C@@H](CC(=O)NO)CC(C)C`, the pKi was over 8.00.

pKi: −log10 of the molar value.
